Series [1] can be described thus: Erosion test, wall currents through simulated orifices (Table 5). The settings on record: sample as named; W samples fresh.
The test system of series [2] is Ames. Nature of the series: Genotoxicity: Ames.
A short description of series [3]: Oral LD50 (Table A).
The nature of series [4]: Dermal LD50 (Table A).
Series [5] concerns Hen. Put plainly: Hen neurotox (Table A). The settings on record: tested at LD50.
Series [6] concerns CHO/HGPRT. Nature of the series: Genotoxicity: CHO/HGPRT.
The nature of series [7]: Eye irritation (Table A). The settings on record: in vivo.
The nature of series [8]: Skin irritation (Table A). The settings on record: in vivo.
Series [9] is described as follows: Genotoxicity: in vivo cytogenetics.
Series [10] in a line: Genotoxicity: in vitro cytogenetics.
Series [11] concerns Bladder. Put plainly: Subchronic bladder hyperplasia (Table A).

We go through 1 compound from US5464551A, “Stabilized phosphate ester-based functional fluid compositions” (Monsanto Company, priority 1993, dated 1995).

Each structure is given as a SMILES string.

In the case of `CCCCOP(=O)(OCCCC)OCCCC`, the “Independent Lab Cond.” value in series [1] is reported as 0.008 μMHO/cm. In [2], the Ames entry is “negative”. In addition, in series [3], the “Oral LD50” value worked out at 1200 mg/kg. Also, the “Dermal LD50” value in series [4] was > 10,000 mg/kg. The “Hen Neurotox” value in series [5] is reported as “Not neurotoxic”. The CHO/HGPRT result in series [6] was “negative”. Also, the “Eye Irritation” value in series [7] is reported as “Mildly irritating”. In [8], the “Skin Irritation” value is “Severely irritating”. For the same compound, in series [9], the in vivo cytogenetics entry is “negative”. Further, in series [10], the in vitro cytogenetics entry is recorded as “negative”. Moreover, the “Subchronic Bladder Hyperplasia, level in rats” value in series [11] is above 1000 ppm. In addition, in series [11] (rats), the “NOEL, subchronic bladder hyperplasia” value is recorded as 200 ppm.
